Test results from ChEMBL document CHEMBL3351542, “Nonpeptide small molecule agonist and antagonist original leads for neuropeptide FF1 and FF2 receptors” (J Med Chem, 2014).
pKi: −log10 of the molar value.

Amino acid sequences for entries named in this document (tags omitted). A change or cut given only in a name is not applied to a line headed by its entry.
UniProt P35372, whole entry, looked up: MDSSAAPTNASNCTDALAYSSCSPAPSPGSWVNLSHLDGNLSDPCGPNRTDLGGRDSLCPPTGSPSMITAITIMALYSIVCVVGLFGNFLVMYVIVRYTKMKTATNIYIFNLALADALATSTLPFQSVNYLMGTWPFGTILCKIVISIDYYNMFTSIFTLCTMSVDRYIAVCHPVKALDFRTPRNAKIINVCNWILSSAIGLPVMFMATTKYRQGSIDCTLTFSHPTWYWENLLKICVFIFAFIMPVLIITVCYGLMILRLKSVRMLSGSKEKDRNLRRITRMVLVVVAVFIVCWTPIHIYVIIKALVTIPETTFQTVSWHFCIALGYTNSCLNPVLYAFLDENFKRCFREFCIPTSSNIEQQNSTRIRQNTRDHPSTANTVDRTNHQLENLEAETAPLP
UniProt P41143, whole entry, looked up: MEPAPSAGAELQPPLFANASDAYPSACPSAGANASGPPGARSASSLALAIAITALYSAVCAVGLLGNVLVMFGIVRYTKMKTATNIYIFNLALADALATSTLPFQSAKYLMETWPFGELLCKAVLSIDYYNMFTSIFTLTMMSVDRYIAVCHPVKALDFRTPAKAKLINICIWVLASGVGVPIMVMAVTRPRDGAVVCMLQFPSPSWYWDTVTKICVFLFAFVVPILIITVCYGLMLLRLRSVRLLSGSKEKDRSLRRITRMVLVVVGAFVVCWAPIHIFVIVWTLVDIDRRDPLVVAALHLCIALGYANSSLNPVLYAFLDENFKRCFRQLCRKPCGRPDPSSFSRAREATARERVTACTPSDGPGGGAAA
UniProt P41145: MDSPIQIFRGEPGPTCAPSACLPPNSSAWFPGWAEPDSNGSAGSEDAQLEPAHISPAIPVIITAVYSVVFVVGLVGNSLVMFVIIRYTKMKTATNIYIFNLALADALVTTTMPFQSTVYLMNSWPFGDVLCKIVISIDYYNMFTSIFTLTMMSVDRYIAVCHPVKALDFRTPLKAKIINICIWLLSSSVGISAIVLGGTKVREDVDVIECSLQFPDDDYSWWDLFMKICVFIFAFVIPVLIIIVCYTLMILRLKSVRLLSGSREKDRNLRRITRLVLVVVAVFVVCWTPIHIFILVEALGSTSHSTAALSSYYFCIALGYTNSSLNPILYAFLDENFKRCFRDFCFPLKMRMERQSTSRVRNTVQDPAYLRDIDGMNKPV

Experiments:
Mu-type opioid receptor = Mu-type opioid receptor (Homo sapiens, UniProt P35372); assay: Displacement of [3H]diprenorphine from human MOR expressed in African green monkey COS-1 cells after 1 hr
[1] = biological target: Delta-type opioid receptor (Homo sapiens, UniProt P41143); assay: Displacement of [3H]diprenorphine from human DOR expressed in African green monkey COS-1 cells after 1 hr
[2] = biological target: Kappa-type opioid receptor (Homo sapiens, UniProt P41145); assay: Displacement of [3H]diprenorphine from human KOR expressed in CHO cells after 1 hr

Measured: pKi

CC(=N)NCCC[C@H](NC(=O)C12CC3CC(CC(C3)C1)C2)C(=O)N[C@@H](Cc1ccccc1)C(N)=O
< 5.30: all assays above
